# Source: PubChem BioAssay AID540308 (The Scripps Research Institute Molecular Screening Center, 2011)
# The chains behind the UniProt entries cited, without tags or fusion partners.
# UniProt P32245, whole entry: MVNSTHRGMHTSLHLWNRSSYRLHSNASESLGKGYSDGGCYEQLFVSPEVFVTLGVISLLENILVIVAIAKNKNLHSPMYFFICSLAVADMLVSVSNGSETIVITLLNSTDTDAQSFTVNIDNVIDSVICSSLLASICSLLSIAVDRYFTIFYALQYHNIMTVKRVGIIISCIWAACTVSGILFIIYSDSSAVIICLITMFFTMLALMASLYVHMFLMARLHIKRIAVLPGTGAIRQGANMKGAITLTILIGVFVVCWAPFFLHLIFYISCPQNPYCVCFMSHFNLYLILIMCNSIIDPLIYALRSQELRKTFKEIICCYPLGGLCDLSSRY
# The entries are a selection whose mix differs from that of the whole data set. Some salts and complexes are drawn in separate pieces, as the source files them; their charges need not balance. Active and inactive are the calls of the source.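 The calls were made as follows: active = activation above a per-plate cutoff, the mean activation of sample wells on that plate plus 3 SD (cut at about 8% in these data); inactive = the rest.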
# Target: Melanocortin receptor 4 (Homo sapiens) (UniProt P32245)
# Assay: activators of MC4R beta-arrestin recruitment – cell-based, luminescence, agonist arm of biased-ligand search, primary screen (AID 540308)
# Conditions: U2OS MC4R beta-arrestin complementation, at 8.9 µM, hits give high values, percent of melanotan II response, DMSO zero
row,Structure (SMILES),activation
1,COc1ccccc1OP(C)(=O)Nc1ccc(Br)cc1 (centres undefined),inactive: -0.34%
2,COc1ccc(OP(C)(=O)Nc2ccccn2)cc1 (centres undefined),inactive: 0.79%
3,CN(C)CCOC(=O)C(O)(c1ccccc1)C1CCCC1 (centres undefined),inactive: -1.04%
4,O=[N+]([O-])c1cc([N+](=O)[O-])c(Nc2ccccn2)c([N+](=O)[O-])c1,inactive: -4.25%
5,Cc1c(NP(C)(=O)Oc2ccc(C(C)C)cc2)c(=O)n(-c2ccccc2)n1C (centres undefined),inactive: -1.68%
6,COc1ccccc1OP(C)(=O)Nc1ccc(C)cc1C (centres undefined),inactive: -1.25%
7,CP(=O)(Nc1ccccn1)Oc1ccccc1 (centres undefined),inactive: 0.25%
8,CCc1ccc(OP(C)(=O)O)cc1,inactive: -2.37%
9,Cc1cc(C)cc(OP(C)(=O)Nc2cccc(C(F)(F)F)c2)c1 (centres undefined),inactive: 3.79%
10,O=C1C(O)=C([N+](=O)[O-])C(=O)C(O)=C1[N+](=O)[O-],inactive: -3.47%
11,COc1ccccc1OP(C)(=O)Nc1ccc(C)c(C)c1 (centres undefined),inactive: -2.37%
12,COc1ccc(OP(C)(=O)Nc2ccccc2Br)cc1 (centres undefined),inactive: 0.03%
13,CP(=O)(OCCOc1ccccc1)OCCOc1ccccc1,inactive: -1.43%
14,CCCCCCCCCCCCCCCC1C[N+](C)(C)CCOP(C)(=O)O1 (centres undefined),inactive: -0.92%
15,CP(=O)(Nc1ccc(Cl)cc1Cl)Oc1ccccc1 (centres undefined),inactive: 0.97%
16,CCOC(=O)c1ccc(NP(C)(=O)Oc2ccc(Cl)cc2)cc1 (centres undefined),inactive: -1.19%
17,CP(=O)(OC12CC3CC(CC(C3)C1)C2)OC12CC3CC(CC(C3)C1)C2,inactive: 0.97%
18,COc1ccc(OP(C)(=O)Nc2ccc(Br)cc2)cc1 (centres undefined),inactive: 1.15%
19,CCN(CC)CC(O)COC(=O)C(O)(c1ccccc1)C1CCCCC1 (centres undefined),inactive: -2.37%
20,O=C(OCCCN1CCCC1)C(O)(c1ccccc1)C1CCCCC1 (centres undefined),inactive: -1.36%

row,Structure (SMILES),activation
1,COc1ccccc1OP(C)(=O)Nc1c(C)n(C)n(-c2ccccc2)c1=O (centres undefined),inactive: -1.06%
2,CCc1ccc(OP(C)(=O)Nc2cccnc2)cc1 (centres undefined),inactive: 0.13%
3,CP(=O)(Oc1ccccc1)N1CCOC1=O (centres undefined),inactive: -1.3%
4,CC(C)(C)c1ccc(OP(C)(=O)O)cc1,inactive: 0.52%
5,COc1ccccc1OP(C)(=O)Nc1ccccc1Br (centres undefined),inactive: -0.54%
6,CP(=O)(Nc1ccc(Cl)cc1)Oc1ccc(F)cc1 (centres undefined),inactive: -0.84%
7,CN(C)C(=O)c1c([N+](=O)[O-])cc([N+](=O)[O-])cc1[N+](=O)[O-],inactive: -1.13%
8,CP(=O)(Nc1ccc(SC(F)(F)F)cc1)Oc1ccc(F)cc1 (centres undefined),inactive: 4.68%
9,CCOP(C)(=S)SCC(=O)NC(C)(CC)C(=O)O (centres undefined),inactive: 0.38%
10,CP(=O)(Nc1ccc2c(c1)OCCO2)Oc1ccccc1 (centres undefined),inactive: -0.54%
11,Cc1ccccc1NP(C)(=O)Nc1ccccc1C,inactive: -1.5%
12,COc1ccc(OP(C)(=O)Nc2cccc(Br)c2)cc1 (centres undefined),inactive: 0.53%
13,CN(C)CCOC(=O)C(O)(c1ccccc1)C1CCCCC1 (centres undefined),inactive: -2.27%
14,COc1ccc(NP(C)(=O)Oc2ccccc2OC)cc1 (centres undefined),inactive: -1.22%
15,O=[N+]([O-])c1ccc(OP2(=O)COCCO2)cc1 (centres undefined),inactive: -1.41%
16,Cc1cc(-c2cccc3ccccc23)c(C)cn1.O=[N+]([O-])c1cc([N+](=O)[O-])c(O)c([N+](=O)[O-])c1,inactive: -3.47%
17,O=[N+]([O-])c1cc([N+](=O)[O-])c(NCC2CCS(=O)(=O)C2)c([N+](=O)[O-])c1 (centres undefined),inactive: -4.9%
18,Cc1c(C(c2ccc3c(c2)OCO3)c2c(C)n(C)n(-c3ccccc3)c2=O)c(=O)n(-c2ccccc2)n1C.O=[N+]([O-])c1cc([N+](=O)[O-])c(O)c([N+](=O)[O-])c1,inactive: 0.27%
19,CCOC(=O)c1ccc(NP(C)(=O)Oc2ccc(F)cc2)cc1 (centres undefined),inactive: -0.91%
20,COc1ccc(OP(C)(=O)Nc2ccc(SC(F)(F)F)cc2)cc1 (centres undefined),inactive: 0.01%

row,Structure (SMILES),activation
1,Cc1c([N+](=O)[O-])cc([N+](=O)[O-])c(Br)c1[N+](=O)[O-],inactive: -0.08%
2,CCN(CC)CCCOC(=O)C(O)(c1ccccc1)C1CCCCC1 (centres undefined),inactive: -0.96%
3,CP(=O)(Nc1ccccc1)Oc1ccc(F)cc1 (centres undefined),inactive: -0.7%
4,CCCCCOc1ccc(NP(C)(=O)Oc2ccc(Cl)cc2Cl)cc1 (centres undefined),inactive: 2.16%
5,O=[N+]([O-])c1cc([N+](=O)[O-])c(OC2CCCCC2O)c([N+](=O)[O-])c1 (centres undefined),inactive: -0.74%
6,O=[N+]([O-])c1cc([N+](=O)[O-])c(Nc2ccc(Cl)cc2)c([N+](=O)[O-])c1,inactive: -3.48%
7,CP(=O)(Nc1ccccc1F)Oc1ccccc1 (centres undefined),inactive: 1.1%
8,CC(C)c1ccc(OP(C)(=O)Nc2ccc(SC(F)(F)F)cc2)cc1 (centres undefined),inactive: -1.05%
9,O=C(OC1CN2CCC1CC2)c1ccc([N+](=O)[O-])cc1 (centres undefined),inactive: -0.53%
10,O=C(OCCN1CCN(CCOCc2ccccc2)CC1)C(O)(c1ccccc1)c1ccccc1,inactive: -1.56%
11,COc1ccc2c(c1O)-c1c(O)c(OC)cc3c1[C@H](C2)[N+](C)(C)CC3.O=[N+]([O-])c1cc([N+](=O)[O-])c([O-])c([N+](=O)[O-])c1[O-],inactive: -1.78%
12,COc1ccccc1OP(C)(=O)Nc1cccc(Br)c1 (centres undefined),inactive: -0.61%
13,CCOC(=O)c1ccc(NP(C)(=O)Oc2cc(C)cc(C)c2)cc1 (centres undefined),inactive: 0.49%
14,Cc1cc(C)cc(OP(C)(=O)Nc2ccc(C)cc2C)c1 (centres undefined),inactive: 3.34%
15,Cc1ccc(C)c(NP(C)(=O)Oc2ccccc2)c1 (centres undefined),inactive: 1.87%
16,CP(=O)(Nc1cccc(Br)c1)Oc1ccccc1 (centres undefined),inactive: -3.62%
17,Cc1cc(C)cc(OP(C)(=O)Nc2ccccn2)c1 (centres undefined),inactive: -0.5%
18,O=C(O)c1cccc(Nc2c([N+](=O)[O-])cc([N+](=O)[O-])cc2[N+](=O)[O-])c1,inactive: -3.88%
19,CC1=NCCc2c1[nH]c1ccccc21.O=[N+]([O-])c1cc([N+](=O)[O-])c(O)c([N+](=O)[O-])c1,inactive: -2.88%
